Among the data in PubChem BioAssay AID488969 (Vanderbilt High Throughput Screening Facility, 2010) are z-score values, retold here.

The chains behind the UniProt entries cited, without tags or fusion partners. Where a name states a change or a piece, a line headed by the entry shows the natural chain unless it says otherwise.
UniProt P70579: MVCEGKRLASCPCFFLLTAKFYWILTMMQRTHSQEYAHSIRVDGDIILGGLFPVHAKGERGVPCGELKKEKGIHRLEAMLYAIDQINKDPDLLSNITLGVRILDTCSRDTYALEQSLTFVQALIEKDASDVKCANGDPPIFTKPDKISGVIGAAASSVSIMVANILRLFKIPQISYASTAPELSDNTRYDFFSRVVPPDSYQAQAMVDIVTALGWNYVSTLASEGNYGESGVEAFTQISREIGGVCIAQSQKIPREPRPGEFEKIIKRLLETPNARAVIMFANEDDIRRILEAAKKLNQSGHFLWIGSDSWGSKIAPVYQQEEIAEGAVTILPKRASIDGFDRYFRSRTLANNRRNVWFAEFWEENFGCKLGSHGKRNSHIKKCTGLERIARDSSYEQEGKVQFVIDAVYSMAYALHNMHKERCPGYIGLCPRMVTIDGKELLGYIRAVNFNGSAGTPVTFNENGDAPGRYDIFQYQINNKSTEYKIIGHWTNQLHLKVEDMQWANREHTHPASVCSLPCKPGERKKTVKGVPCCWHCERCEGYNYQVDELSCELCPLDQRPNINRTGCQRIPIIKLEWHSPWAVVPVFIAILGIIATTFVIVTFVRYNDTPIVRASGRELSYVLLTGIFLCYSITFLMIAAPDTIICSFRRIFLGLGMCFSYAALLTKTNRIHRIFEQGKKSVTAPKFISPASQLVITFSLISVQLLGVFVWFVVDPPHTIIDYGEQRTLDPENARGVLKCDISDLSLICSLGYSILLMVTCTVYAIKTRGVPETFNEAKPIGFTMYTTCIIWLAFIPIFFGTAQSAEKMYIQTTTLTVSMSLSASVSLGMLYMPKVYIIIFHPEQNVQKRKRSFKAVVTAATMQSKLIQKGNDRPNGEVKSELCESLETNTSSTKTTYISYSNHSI

The entries are a selection whose mix differs from that of the whole data set.

The test concerns the target Metabotropic glutamate receptor 8 (Rattus norvegicus) (UniProt P70579). The test can be described thus: rat mGluR8 modulators via GIRK flux, primary screen, cell-based, thallium flux, HTS (AID 488969). The following applies: HEK293 rat mGluR8, GIRK (G protein-gated inwardly rectifying potassium channel) thallium flux, FluoZin2; at 10 µM; stronger effect = higher value; submaximal glutamate (EC20) added with thallium.
As to `CCN(N=Nc1nonc1N)c1nonc1N`, the z-score was -0.0982.
The result for `CCOP(=O)(Nc1ccccc1)OCC` reads -0.127; that for `Cc1cc(SC(NC(=O)c2ccc(F)cc2)C(Cl)(Cl)Cl)ncn1` (stereo not given), 0.536; that for `Oc1ccccc1CNc1ccccn1`, -0.268.
The figure for `CC(C)CC(=O)NC(Sc1ccc(Cl)cc1)C(Cl)(Cl)Cl` (stereo not given) is -0.573.
The figure for `CN1CCCC(OC(=O)C(c2ccccc2)c2ccccc2)C1` (stereo not given) is -0.259; for `CC1CCN(C(=O)Oc2c(Cl)cc(Cl)c3cccnc23)CC1` it is -0.181; for `CCc1nc2c(n1)c1c(non1O)c1c2no[n+]1[O-]` it is -0.122.
Regarding `CC(=O)N1C2C3N(C(C)=O)C1C1N(C(C)=O)C(C(N1C(C)=O)N3C(C)=O)N2C(C)=O`, the z-score is -0.0533.
The figure for `O=[N+]([O-])c1cccc2n[nH]nc12` is -0.414; for `O=C(OC1CN2CCC1CC2)c1cccc(Cl)c1` (stereo not given) it is -2.06; for `O=P(Nc1nccs1)(c1ccccc1)c1ccccc1` it is 0.11.
The result for `CC(C)C(=O)NC(Sc1ccccc1)C(Cl)(Cl)Cl` (stereo not given) reads -0.117; that for `O=P1(Nc2nc3ccc(Cl)cc3s2)COc2ccccc2O1` (stereo not given), 0.106.
The figure for `CCC(=O)N1C2C3N(C(=O)CC)C1C1N(C(=O)CC)C(C(N1C(=O)CC)N3C(=O)CC)N2C(=O)CC` is -0.214; for `COC(=O)c1cc2c(s1)N=C(c1ccccc1)N(C)P2(=O)N1CCOCC1` (stereo not given) it is 0.062; for `CCOP1(=S)c2c(C)nn(CCC#N)c2N=C(c2ccc(F)cc2)N1C` (stereo not given) it is 0.448.
In turn, `O=[N+]([O-])c1ccc2c(c1)nnn2O` registered a z-score of 0.00196.
The result for `CCOP1(=S)c2c(C)nn(CCC#N)c2N=C(c2ccccc2F)N1C` (stereo not given) reads -0.176.
Take `COc1cc(C2NCCC3(OCCO3)C2(C)C)cc(OC)c1OC` (stereo not given): the z-score is 0.0961.
The figure for `Cc1cccc(OCC(=O)OC2CN3CCC2CC3)c1` (stereo not given) is -0.00121; for `CC1(CBr)Cn2c(nc3ccccc3c2=O)S1` (stereo not given) it is -0.199.
In turn, `O=P1(Nc2ccc(Br)cn2)COc2ccccc2OC1` came in with a z-score of 0.0639.
In turn, `Cc1ccc(OCC(=O)OC2CN3CCC2CC3)cc1` (stereo not given) returned a z-score of 0.212.
`O=P1(Nc2ncccn2)COc2ccccc2OC1` gave a z-score of 0.429.
In the case of `Cc1nn(-c2ccccc2)c2c1P(=O)(N1CCOCC1)N(C)C(c1ccccc1)=N2` (stereo not given), the z-score was 0.435.
The figure for `Cc1cc(SC(NC(=O)c2ccccc2)C(Cl)(Cl)Cl)nc(C(C)C)n1` (stereo not given) is -0.219; for `CCC(C)N(CC(C)C)C(=S)SC(NC(C)=O)C(Cl)(Cl)Cl` (stereo not given) it is 1.4; for `O=C(COc1ccccc1)OC1CN2CCC1CC2` (stereo not given) it is 0.278.
The figure for `COP1(=S)c2c(C)nn(CCC#N)c2N=C(c2ccc(F)cc2)N1C` (stereo not given) is 0.0466; for `Cc1c2c(nc3ccccc13)SC(C(Cl)Cl)C2` (stereo not given) it is -0.583; for `O=C(OC1CN2CCC1CC2)C12CC3CC(CC(C3)C1)C2` (stereo not given) it is -0.0387.
With `CCN(CC)C(=S)SC(NC=O)C(Cl)(Cl)Cl` (stereo not given), the z-score is 0.0409.
Turning to `ClCCSc1nnc(-c2cccnc2)o1`, the z-score is -0.868.
The figure for `Cc1ccc2nc3c(c(C)c2c1)CC(C(Cl)Cl)S3` (stereo not given) is -0.497.
